Here are results for two compounds from PMC8179049 (Chemical Science, 2020).

Where “and” joins values, the source holds several entries; their conditions need not be identical. Identical values can stand only once.

For the assay, the target named is T1, human AspH (His6-AspH315-758) (Homo sapiens, UniProt Q12797).
T1 construct: N-Terminally His6-tagged human AspH315-758 (His6-AspH315-758) was produced in Escherichia coli BL21 (DE3); made in house; host or cells: Escherichia coli BL21 (DE3), pET-28a(+) vector
T1 sequence (Q12797 315-758): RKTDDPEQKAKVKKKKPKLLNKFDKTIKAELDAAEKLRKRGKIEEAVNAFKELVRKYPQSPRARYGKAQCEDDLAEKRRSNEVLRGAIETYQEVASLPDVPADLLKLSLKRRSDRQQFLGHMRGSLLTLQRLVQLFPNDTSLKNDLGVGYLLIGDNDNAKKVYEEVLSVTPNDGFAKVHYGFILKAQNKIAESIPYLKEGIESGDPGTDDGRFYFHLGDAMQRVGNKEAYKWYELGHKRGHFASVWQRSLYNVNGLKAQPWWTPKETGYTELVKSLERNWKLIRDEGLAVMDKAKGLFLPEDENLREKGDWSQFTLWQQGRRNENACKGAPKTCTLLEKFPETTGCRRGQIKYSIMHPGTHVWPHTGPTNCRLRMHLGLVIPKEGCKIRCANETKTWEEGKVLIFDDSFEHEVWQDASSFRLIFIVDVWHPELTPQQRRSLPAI
Description: AspH steady-state kinetics by SPE-MS turnover assays. The assay is classed as biochemical. To be noted: calculated from the concentration of active AspH (90.8 ± 13.7 nM).

`O=C(O)C(=O)c1ccc(C(=O)O)cc1` [compound 41, 4-carboxyphenylglyoxylic acid]: the k cat is ~0.04 s⁻¹ and 0.04 ± 0.01 s⁻¹.
Take `CC(CC(=O)O)C(=O)C(=O)O` (centres unmarked) [compound 16, 3-methyl-2OG]: the k cat is ~0.08 s⁻¹ and 0.08 ± 0.01 s⁻¹.
